{"sequences": {"note": "Protein sequences, listed by entry. Tags and fused reporters are not part of them. Lines headed by an entry give the natural chain unless they say otherwise; changes in a name come on top.", "UniProt P41145": "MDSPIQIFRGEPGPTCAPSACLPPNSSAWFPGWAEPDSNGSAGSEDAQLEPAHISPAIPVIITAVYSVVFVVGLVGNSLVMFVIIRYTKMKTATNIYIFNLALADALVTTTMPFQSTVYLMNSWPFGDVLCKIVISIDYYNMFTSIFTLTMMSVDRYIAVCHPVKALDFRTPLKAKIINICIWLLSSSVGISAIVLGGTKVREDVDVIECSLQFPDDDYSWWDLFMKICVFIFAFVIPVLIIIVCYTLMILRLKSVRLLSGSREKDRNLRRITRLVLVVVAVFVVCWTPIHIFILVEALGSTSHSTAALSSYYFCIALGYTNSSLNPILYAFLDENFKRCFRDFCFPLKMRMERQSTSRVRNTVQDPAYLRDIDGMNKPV"}, "source": "paper PMC2788666", "about": "(Journal of medicinal chemistry, 2009)", "origin": "cited, not measured here", "biological_target": "κ opioid receptor (Homo sapiens, UniProt P41145)", "settings": "ratio of Ki values, κ = 1; ref [9]; cited from earlier work"}
{"smiles": "Oc1ccc2c(c1)[C@@]13CCCC[C@H]1[C@@H](C2)N(CC1CCC1)CC3", "note": "[Butorphan, butorphan]", "values": [{"measurement": "Selectivity μ/δ/κ", "result": "3/75/1"}]}
